Results published in US20260384438A1, “PYRROLOPYRIMIDINE CARBOXAMIDES” (published 2026).

Amino acid sequences for entries named in this document (tags omitted). Residues count along the entry.
UniProt Q15831, 1-430 limits assumed: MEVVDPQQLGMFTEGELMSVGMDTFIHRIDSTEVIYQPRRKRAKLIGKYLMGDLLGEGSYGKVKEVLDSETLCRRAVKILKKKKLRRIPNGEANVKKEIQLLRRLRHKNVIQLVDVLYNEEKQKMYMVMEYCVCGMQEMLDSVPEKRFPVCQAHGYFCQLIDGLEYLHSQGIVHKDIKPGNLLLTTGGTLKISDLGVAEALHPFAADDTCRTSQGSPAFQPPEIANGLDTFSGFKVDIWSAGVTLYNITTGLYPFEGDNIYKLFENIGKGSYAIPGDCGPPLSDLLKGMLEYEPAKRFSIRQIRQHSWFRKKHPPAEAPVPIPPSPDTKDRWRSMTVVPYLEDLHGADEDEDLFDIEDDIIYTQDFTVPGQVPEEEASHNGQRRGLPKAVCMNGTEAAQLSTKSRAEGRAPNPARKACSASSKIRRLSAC
UniProt Q9H2K8, whole entry: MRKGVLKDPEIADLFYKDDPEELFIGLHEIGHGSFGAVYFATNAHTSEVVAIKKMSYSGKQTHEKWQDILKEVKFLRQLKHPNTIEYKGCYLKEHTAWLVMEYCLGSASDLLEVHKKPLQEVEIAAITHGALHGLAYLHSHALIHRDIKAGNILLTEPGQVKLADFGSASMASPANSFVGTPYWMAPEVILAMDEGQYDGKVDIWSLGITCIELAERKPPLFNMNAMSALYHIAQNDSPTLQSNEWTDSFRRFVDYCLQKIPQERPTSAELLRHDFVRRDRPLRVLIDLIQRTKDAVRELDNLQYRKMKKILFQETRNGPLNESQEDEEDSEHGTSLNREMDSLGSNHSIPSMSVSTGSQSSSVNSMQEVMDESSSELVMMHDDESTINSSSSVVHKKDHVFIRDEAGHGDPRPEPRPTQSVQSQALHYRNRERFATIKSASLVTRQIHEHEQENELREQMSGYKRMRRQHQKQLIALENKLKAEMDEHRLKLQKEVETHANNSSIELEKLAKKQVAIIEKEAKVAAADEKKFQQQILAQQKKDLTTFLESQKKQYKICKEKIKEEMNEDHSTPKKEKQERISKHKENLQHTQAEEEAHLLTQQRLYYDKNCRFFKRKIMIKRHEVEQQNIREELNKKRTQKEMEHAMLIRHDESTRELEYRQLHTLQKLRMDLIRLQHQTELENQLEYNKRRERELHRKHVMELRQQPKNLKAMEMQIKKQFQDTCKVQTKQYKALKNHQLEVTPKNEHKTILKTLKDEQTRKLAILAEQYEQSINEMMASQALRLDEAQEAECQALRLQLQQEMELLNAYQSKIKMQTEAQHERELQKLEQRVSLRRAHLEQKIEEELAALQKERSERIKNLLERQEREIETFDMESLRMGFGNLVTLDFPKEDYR
UniProt Q13976, whole entry: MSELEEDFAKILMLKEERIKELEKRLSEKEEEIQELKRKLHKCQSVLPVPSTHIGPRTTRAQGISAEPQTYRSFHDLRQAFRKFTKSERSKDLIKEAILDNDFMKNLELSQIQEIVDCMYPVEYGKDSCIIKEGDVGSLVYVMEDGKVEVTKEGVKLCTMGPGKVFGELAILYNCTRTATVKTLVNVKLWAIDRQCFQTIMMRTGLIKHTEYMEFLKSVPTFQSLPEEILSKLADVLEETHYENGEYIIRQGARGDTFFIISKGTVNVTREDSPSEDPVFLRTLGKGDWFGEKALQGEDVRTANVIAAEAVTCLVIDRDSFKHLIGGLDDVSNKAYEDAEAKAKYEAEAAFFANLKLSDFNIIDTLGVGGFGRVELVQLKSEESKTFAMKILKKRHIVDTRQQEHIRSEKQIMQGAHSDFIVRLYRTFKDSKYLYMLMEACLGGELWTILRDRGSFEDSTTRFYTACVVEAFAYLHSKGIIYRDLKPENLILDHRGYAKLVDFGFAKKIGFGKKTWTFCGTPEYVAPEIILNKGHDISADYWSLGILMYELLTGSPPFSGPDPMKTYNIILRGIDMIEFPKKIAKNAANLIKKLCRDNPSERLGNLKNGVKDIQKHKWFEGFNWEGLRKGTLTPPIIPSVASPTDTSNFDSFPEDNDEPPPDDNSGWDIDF
UniProt P21709, 26-976 limits assumed: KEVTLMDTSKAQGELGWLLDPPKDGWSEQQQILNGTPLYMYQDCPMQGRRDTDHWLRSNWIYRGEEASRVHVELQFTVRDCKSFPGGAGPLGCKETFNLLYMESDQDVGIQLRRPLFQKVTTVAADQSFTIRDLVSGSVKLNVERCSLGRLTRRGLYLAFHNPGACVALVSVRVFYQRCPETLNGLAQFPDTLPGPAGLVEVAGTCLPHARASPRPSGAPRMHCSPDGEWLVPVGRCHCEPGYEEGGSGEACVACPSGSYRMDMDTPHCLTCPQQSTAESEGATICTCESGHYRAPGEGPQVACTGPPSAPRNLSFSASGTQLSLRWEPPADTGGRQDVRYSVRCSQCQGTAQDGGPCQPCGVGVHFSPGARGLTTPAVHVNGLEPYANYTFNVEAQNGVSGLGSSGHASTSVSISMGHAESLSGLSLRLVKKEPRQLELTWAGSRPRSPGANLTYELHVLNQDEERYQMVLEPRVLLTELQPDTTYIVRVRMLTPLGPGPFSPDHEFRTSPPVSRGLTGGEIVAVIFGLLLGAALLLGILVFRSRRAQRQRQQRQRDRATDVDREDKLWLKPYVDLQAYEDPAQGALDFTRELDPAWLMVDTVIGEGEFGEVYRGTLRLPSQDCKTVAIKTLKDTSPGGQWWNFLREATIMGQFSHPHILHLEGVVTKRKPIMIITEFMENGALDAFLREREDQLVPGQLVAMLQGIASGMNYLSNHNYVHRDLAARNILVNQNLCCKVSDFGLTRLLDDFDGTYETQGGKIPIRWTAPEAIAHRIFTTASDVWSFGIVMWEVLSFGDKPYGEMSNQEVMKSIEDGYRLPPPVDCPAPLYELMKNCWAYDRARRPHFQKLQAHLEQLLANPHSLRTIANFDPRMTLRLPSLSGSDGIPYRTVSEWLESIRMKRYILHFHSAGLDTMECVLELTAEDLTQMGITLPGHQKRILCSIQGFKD
UniProt Q16832, 22-855 limits assumed: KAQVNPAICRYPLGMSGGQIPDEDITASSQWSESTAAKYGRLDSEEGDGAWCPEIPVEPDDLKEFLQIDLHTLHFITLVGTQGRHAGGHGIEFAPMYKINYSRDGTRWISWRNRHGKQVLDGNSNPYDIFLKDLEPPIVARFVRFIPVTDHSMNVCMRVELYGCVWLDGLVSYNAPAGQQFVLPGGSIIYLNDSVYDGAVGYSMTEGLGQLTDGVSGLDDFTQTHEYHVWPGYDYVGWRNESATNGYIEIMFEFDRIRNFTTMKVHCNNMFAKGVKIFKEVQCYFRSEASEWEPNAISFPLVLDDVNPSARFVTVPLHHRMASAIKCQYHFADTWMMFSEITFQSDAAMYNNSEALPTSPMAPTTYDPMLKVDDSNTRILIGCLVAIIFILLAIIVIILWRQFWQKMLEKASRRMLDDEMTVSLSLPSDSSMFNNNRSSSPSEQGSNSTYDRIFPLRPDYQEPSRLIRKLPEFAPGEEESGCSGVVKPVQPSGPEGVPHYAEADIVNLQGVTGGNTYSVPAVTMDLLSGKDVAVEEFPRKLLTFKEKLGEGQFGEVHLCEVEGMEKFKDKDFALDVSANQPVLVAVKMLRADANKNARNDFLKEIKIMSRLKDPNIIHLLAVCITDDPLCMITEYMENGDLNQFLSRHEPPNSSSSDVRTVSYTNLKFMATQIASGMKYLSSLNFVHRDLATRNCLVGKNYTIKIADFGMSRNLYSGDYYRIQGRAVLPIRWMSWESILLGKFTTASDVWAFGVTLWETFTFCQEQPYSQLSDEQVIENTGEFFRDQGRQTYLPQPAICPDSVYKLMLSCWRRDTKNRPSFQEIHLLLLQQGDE
UniProt Q92630, whole entry: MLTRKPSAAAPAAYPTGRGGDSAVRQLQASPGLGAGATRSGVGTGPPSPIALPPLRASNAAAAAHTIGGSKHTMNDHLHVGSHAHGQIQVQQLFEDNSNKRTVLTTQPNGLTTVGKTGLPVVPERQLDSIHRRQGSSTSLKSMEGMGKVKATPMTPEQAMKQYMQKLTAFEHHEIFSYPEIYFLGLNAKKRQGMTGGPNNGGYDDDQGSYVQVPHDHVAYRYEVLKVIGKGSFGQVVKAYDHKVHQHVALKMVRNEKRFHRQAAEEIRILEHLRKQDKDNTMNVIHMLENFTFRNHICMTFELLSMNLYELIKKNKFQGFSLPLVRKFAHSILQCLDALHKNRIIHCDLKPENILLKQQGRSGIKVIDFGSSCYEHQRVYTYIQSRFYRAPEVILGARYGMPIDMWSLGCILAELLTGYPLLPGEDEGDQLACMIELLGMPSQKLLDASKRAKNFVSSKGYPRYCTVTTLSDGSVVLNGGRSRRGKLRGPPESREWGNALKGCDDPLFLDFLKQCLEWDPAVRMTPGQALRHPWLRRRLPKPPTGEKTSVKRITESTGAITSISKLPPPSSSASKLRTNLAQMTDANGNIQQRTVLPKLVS
UniProt P00519, whole entry: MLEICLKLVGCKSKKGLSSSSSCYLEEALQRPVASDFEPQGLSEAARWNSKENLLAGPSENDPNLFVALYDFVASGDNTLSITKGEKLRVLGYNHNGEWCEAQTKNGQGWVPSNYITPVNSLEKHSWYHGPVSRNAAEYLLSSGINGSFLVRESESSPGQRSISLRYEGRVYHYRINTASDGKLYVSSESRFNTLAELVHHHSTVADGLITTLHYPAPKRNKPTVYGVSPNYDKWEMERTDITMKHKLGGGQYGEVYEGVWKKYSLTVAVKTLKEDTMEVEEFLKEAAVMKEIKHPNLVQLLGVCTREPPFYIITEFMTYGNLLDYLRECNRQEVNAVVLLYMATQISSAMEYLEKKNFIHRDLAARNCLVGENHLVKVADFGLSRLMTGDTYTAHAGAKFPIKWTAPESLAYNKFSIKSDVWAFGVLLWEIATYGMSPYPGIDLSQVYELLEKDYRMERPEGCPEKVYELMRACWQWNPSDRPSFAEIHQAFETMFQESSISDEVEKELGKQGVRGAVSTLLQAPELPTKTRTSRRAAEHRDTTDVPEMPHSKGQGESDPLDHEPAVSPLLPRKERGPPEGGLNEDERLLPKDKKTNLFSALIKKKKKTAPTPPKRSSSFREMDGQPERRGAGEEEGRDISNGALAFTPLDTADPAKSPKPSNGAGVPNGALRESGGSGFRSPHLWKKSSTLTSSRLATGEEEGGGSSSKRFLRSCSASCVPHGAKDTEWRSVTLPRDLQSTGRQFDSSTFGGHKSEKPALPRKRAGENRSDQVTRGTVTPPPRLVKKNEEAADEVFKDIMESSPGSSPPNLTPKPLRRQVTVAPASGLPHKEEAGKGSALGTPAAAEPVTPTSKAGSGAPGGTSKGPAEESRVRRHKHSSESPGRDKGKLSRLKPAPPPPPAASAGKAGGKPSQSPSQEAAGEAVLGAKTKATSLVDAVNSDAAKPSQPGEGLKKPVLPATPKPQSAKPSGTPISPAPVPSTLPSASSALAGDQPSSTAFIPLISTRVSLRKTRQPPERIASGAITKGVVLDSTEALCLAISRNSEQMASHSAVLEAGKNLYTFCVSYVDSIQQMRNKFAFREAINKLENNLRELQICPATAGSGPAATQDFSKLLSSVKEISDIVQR
UniProt Q13572, whole entry: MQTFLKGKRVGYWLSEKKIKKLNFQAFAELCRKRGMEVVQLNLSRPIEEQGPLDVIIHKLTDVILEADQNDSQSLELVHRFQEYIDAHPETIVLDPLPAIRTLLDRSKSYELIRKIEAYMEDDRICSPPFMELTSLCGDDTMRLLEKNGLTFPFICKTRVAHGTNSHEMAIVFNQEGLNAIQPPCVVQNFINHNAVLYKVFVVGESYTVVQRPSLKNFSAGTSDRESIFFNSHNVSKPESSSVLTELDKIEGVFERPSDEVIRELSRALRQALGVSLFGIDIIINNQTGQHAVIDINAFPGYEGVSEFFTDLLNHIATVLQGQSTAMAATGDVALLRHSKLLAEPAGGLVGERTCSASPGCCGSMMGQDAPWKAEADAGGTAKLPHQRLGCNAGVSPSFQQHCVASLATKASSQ
UniProt P45983, whole entry: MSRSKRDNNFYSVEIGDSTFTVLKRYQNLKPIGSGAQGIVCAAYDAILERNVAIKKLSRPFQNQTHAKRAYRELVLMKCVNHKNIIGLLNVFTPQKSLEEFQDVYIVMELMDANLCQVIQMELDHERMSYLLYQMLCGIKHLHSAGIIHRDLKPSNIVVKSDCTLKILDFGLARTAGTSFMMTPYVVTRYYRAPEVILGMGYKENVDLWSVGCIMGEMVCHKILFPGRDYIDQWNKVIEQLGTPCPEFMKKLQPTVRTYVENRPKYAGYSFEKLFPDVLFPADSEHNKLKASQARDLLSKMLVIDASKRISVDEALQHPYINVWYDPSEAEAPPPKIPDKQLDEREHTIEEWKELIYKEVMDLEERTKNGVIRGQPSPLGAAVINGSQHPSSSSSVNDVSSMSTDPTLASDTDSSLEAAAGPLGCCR

Experiments:
Assay in all cases: KAT chemical proteomics
STK11 = STK11 (Homo sapiens, UniProt Q15831)
TMEM11 = system: TMEM11
FN3K = FN3K (Homo sapiens, UniProt Q9H479)
PKMYT1 = PKMYT1 (Homo sapiens, UniProt Q99640)
AGK = AGK (Homo sapiens, UniProt Q53H12)
BMPR1B = BMPR1B (Homo sapiens, UniProt O00238)
STK36 = STK36 (Homo sapiens, UniProt Q9NRP7)
FRK = FRK (Homo sapiens, UniProt P42685)
PRKCB = PRKCB (Homo sapiens, UniProt P05771)
PIK3R4 = system: PIK3R4
TAOK3 = TAOK3 (Homo sapiens, UniProt Q9H2K8)
PRKG1 = PRKG1 (Homo sapiens, UniProt Q13976)
GK = GK (Homo sapiens, UniProt P32189)
PI4K2A = PI4K2A (Homo sapiens, UniProt Q9BTU6)
PRKAB2 = system: PRKAB2
EPHA1 = EPHA1 (Homo sapiens, UniProt P21709)
LATS2 = LATS2 (Homo sapiens, UniProt Q9NRM7)
DDR2 = DDR2 (Homo sapiens, UniProt Q16832)
STK35 = STK35 (Homo sapiens, UniProt Q8TDR2)
HCK = HCK (Homo sapiens, UniProt P08631)
AKT3 = AKT3 (Homo sapiens, UniProt Q9Y243)
DYRK2 = DYRK2 (Homo sapiens, UniProt Q92630)
CDC7 = CDC7 (Homo sapiens, UniProt O00311)
ABL1 = ABL1 (Homo sapiens, UniProt P00519)
TEC = TEC (Homo sapiens, UniProt P42680)
CDK19 = CDK19 (Homo sapiens, UniProt Q9BWU1)
BUB1 = BUB1 (Homo sapiens, UniProt O43683)
ITPK1 = ITPK1 (Homo sapiens, UniProt Q13572)
PRKCA = PRKCA (Homo sapiens, UniProt P17252)
CDK9 = CDK9 (Homo sapiens, UniProt P50750)
CAB39 = system: CAB39
FGFR3 = FGFR3 (Homo sapiens, UniProt P22607)
TGFBR1 = TGFBR1 (Homo sapiens, UniProt P36897)
CCNB1 = system: CCNB1
MAPK14 = MAPK14 (Homo sapiens, UniProt Q16539)
SRC = SRC (Homo sapiens, UniProt P12931)
CSNK1D = CSNK1D (Homo sapiens, UniProt P48730)
MAPK8 = MAPK8 (Homo sapiens, UniProt P45983)
MAP3K2 = MAP3K2 (Homo sapiens, UniProt Q9Y2U5)
MAP2K5 = MAP2K5 (Homo sapiens, UniProt Q13163)
CCNE1 = system: CCNE1

With `Cc1nc(C(F)(F)F)c2c(C(N)=O)c(N)n(-c3c(C)ccc(O)c3C)c2n1` (single isomer, unassigned) the RB50 (STK11) was greater than 50 µM, the RB50 (TMEM11) was greater than 50 µM and the RB50 (FN3K) was greater than 50 µM. It also gave an RB50 (PKMYT1) of 832 pM, an RB50 (AGK) greater than 50 µM and an RB50 (BMPR1B) of 20.7 nM. For the same compound, the RB50 (STK36) was greater than 50 µM, the RB50 (FRK) was 245 nM and the RB50 (PRKCB) was greater than 50 µM. For the same compound, the RB50 (PIK3R4) was greater than 50 µM, the RB50 (TAOK3) was greater than 50 µM and the RB50 (PRKG1) was greater than 50 µM. The RB50 (GK) was greater than 50 µM, the RB50 (PI4K2A) was greater than 50 µM and the RB50 (PRKAB2) was greater than 50 µM. For the same compound, the RB50 (EPHA1) was 2.4 nM, the RB50 (LATS2) was greater than 50 µM and the RB50 (DDR2) was greater than 50 µM. It also gave an RB50 (STK35) greater than 50 µM, an RB50 (HCK) greater than 50 µM and an RB50 (AKT3) greater than 50 µM. It also gave an RB50 (DYRK2) greater than 50 µM, an RB50 (CDC7) greater than 50 µM and an RB50 (ABL1) of 389 nM. It also gave an RB50 (TEC) greater than 50 µM, an RB50 (CDK19) greater than 50 µM and an RB50 (BUB1) greater than 50 µM. It also gave an RB50 (ITPK1) greater than 50 µM, an RB50 (PRKCA) greater than 50 µM and an RB50 (CDK9) greater than 50 µM. For the same compound, the RB50 (CAB39) was greater than 50 µM, the RB50 (FGFR3) was greater than 50 µM and the RB50 (TGFBR1) was 87.9 nM. The RB50 (CCNB1) was greater than 50 µM, the RB50 (MAPK14) was greater than 50 µM and the RB50 (SRC) was 178 nM. The RB50 (CSNK1D) was greater than 50 µM, the RB50 (MAPK8) was greater than 50 µM and the RB50 (MAP3K2) was greater than 50 µM. For the same compound, the RB50 (MAP2K5) was greater than 50 µM and the RB50 (CCNE1) was greater than 50 µM.
